Experimental data taken from ChEMBL document CHEMBL4043239, “Discovery and optimization of oxadiazole-based FLAP inhibitors” (Bioorg Med Chem Lett, 2017).

By UniProt entry, the sequences of proteins in these tests, tags left out. Where a name states a change or a piece, a line headed by the entry shows the natural chain unless it says otherwise.
UniProt P20292: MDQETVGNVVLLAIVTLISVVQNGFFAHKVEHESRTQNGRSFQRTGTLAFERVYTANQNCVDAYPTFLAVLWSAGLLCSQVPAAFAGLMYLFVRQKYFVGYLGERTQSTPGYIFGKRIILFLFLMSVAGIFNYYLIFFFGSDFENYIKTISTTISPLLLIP

Target: Arachidonate 5-lipoxygenase-activating protein (Homo sapiens, UniProt P20292)
Test: Displacement of [125I]-L-691831 from human FLAP expressed in Sf9 cell membranes after 2 hrs by Topcount method

IC50: 3.7 nM
Compound: CC(C)(C)NC(=O)Cn1cc(-c2nc(C3(c4ccc(-c5cnc(N)nc5)cc4)CCC3)no2)cn1
